Sequences of proteins named here, by UniProt entry; tags and fusion partners are left off.
UniProt Q02108, whole entry: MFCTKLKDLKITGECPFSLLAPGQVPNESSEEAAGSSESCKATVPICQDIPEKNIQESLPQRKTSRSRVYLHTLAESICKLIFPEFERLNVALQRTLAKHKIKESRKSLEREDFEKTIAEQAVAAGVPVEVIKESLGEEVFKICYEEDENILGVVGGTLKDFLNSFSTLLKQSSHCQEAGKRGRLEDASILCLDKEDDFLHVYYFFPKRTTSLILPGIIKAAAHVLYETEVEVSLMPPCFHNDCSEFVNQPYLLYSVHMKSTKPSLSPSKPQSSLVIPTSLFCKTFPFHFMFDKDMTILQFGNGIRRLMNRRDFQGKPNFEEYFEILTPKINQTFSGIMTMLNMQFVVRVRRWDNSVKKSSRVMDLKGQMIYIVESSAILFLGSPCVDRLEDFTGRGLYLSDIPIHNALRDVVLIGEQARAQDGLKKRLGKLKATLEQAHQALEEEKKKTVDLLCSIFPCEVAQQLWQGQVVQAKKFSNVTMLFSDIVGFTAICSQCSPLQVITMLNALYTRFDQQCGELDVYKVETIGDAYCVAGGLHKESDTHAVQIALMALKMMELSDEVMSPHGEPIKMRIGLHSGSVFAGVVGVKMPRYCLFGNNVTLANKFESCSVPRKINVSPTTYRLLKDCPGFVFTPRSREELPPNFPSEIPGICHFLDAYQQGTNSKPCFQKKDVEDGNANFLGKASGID
UniProt Q02153, whole entry: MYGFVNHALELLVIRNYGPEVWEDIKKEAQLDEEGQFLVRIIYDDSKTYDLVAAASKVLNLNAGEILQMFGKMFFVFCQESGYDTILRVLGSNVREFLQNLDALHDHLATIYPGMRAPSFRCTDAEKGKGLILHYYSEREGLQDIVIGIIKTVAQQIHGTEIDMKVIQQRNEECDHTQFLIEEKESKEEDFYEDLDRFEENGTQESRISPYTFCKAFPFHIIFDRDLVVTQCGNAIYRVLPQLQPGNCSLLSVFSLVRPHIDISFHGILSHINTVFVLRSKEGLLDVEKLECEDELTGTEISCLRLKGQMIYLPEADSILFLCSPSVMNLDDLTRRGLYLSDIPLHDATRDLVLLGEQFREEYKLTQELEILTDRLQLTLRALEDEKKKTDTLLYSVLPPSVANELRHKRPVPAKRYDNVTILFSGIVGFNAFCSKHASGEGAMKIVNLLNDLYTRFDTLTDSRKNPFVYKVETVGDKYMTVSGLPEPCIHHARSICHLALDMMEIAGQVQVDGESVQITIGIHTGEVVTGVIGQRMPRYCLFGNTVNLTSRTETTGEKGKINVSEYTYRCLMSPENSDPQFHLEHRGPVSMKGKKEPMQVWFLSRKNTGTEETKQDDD

In patent EP4786461A1, “PYRAZOLE CARBOXYLIC ACID DERIVATIVE AND USE THEREOF IN MEDICINE” (Haisco Pharmaceutical Group Co., Ltd., priority 2023, dated 2025):

Target: soluble guanylate cyclase (sGC) (Homo sapiens, UniProt Q02108+Q02153)
Test: In vitro detection experiment for soluble guanylate cyclase (sGC) activity (TR-FRET cGMP)
Conditions: enzymatic agonism and/or activation of sGC; 1.5 nM sGC, 5 µM GTP, 100 µM DETA NONOate; tested form: free form

EC50: < 20 nM
SMILES: CC(C)CN1C2CCC1CN(c1ccc(-c3ccc(Cl)cc3N3CCCC(n4ncc(C(=O)O)c4C(F)F)C3)cc1)C2 (single isomer, unassigned)
